The values that follow come from patent publication US5677146.

Test [1] deals with Cathepsin G, purified at Novo Nordisk A/S using the method of Baugh and Travis.
Test [2] addresses Chymotrypsin (2.5 nM), Novo Nordisk A/S.
Test [3] has as its target Leukocyte Elastase, purified at Novo Nordisk A/S using the method of Baugh and Travis.
Test [4] concerns the target Plasmin (10 nM), Kabi.
Test [5] has as its target Trypsin (8 nM), Novo Nordisk A/S, Bagsvaerd, Denmark.
The target of test [6] is Urokinase (5 nM), Serono, Freigung, Germany.
Test [7] has as its target glandular kallikrein (1 U/ml), Sigma, St Louis, MO.
In test [8] the target is human Factor XIIa (30 nM) (human) (UniProt P00748).
Test [9] deals with human Factor XIa (1 nM) (human) (UniProt P03951).
Test [10] deals with human Factor Xa (3 nM) (human) (UniProt P00742).
Test [11] deals with plasma kallikrein (3 nM), Kabi.
Test [12] addresses recombinant human Factor VIIa (300 nM), Novo Nordisk A/S (human) (UniProt P08709).

As for “bovine aprotinin (amino acids 1-58) (from UniProt P00974)”, the % Inhibition (as a rule, the drop in the measured response relative to a control, in per cent) in test [1] was 4%; in test [2] it was 91.3%; in test [3], 1%; in test [4], 100%; in [5], 100%; in [6], 1%. Moreover, the % Inhibition in test [7] turned out to be 91.4%; in test [8] it was 2%; in test [9], 59%; in test [10], 1%; in test [11], 83%; in [12], 1%.
